Values of other authors, collected in patent US20090221581A1, “Methods of treating pain” (priority 2005, published 2009).

The chains behind the UniProt entries cited, without tags or fusion partners.
UniProt P50750, whole entry, species assumed: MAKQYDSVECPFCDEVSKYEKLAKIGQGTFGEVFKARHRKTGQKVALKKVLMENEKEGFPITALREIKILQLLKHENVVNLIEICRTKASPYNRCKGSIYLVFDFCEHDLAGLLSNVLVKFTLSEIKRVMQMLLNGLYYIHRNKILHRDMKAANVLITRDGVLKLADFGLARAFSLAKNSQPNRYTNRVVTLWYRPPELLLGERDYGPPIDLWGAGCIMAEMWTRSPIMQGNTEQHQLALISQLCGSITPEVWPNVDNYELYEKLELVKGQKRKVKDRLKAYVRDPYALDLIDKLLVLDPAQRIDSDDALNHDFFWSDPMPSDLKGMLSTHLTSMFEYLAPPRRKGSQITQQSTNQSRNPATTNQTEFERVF

Target: CDK9 (Homo sapiens, UniProt P50750)
Conditions: versus 5,6-dichloro-1-beta-D-ribofuranosylbenzimidazole (DRB); Chao and Price, 2001; cited from earlier work

## CN1CC[C@H](c2c(O)cc(O)c3c(=O)cc(-c4ccccc4Cl)oc23)[C@H](O)C1 [Flavopiridol]
  affinity for target compared with DRB: higher affinity
